Experimental data reported in ChEMBL document CHEMBL4052757, “Bistacrines as potential antitrypanosomal agents” (Bioorg Med Chem, 2017).

Tested on: J774.1
Experiment: Cytotoxicity against mouse J774.1 cells after 24 hrs by alamar blue assay
Assay type: cell-based

Compound | IC50
c1ccc2c(NCCCCNc3c4c(nc5ccccc35)CCCC4)c3c(nc2c1)CCCC3 | 8.3 µM
c1ccc2c(NCCCCCCCCCNc3c4c(nc5ccccc35)CCCC4)c3c(nc2c1)CCCC3 | 1.8 µM
c1ccc2c(NCCNc3c4c(nc5ccccc35)CCCC4)c3c(nc2c1)CCCC3 | 45.2 µM
c1ccc2c(NCCCNc3c4c(nc5ccccc35)CCCC4)c3c(nc2c1)CCCC3 | 42.6 µM
